These results are taken from publication PMC11370232, “Repurposing of a library for high-content screening of inhibitors against Echinococcus granulosus” (Parasites & Vectors, 2024).

This experiment deals with E. granulosus PSCs. The experiment in a line: microbe, parasite or virus in culture. Particulars: Echinococcus granulosus; for killing at 0.5 µM / killing at 2 µM / killing at 10 µM / killing at 50 µM / MIC90: 72 h; for killing at 0.5 µM: read-out: Anti-echinicoccus activity, Dose confirmaiton 0.5uM, second-stage dose-response, 0.5 μM, PSCs; for killing at 2 µM: read-out: Anti-echinicoccus activity, Dose confirmaiton 2uM, second-stage dose-response, 2 μM, PSCs; for killing at 10 µM: read-out: Anti-echinicoccus activity, Dose confirmaiton 10uM, second-stage dose-response, 10 μM, PSCs; for MIC90: read-out: MIC90 (minimum inhibitory concentration causing a 90% death of PSCs).

Where [1] appears, read: read-out: Anti-echinicoccus activity, Dose confirmaiton 50uM, second-stage dose-response, 50 μM, PSCs.
Where [2] appears, read: read-out: Anti-echinicoccus activity, Initiate hits 50uM, primary screen, 50 μM, PSCs, 3-day incubation, PI staining (death rate of PSCs).
[3] abbreviates: read-out: Anti-echinococcus activity % of death, 0.5uM, E. granulosus PSCs, compound at 0.5uM.
Setting [4] is: read-out: Anti-echinococcus activity % of death, 2uM, E. granulosus PSCs, compound at 2uM.
Setting [5] is: read-out: Anti-echinococcus activity % of death, 10uM, E. granulosus PSCs, compound at 10uM.
[6] abbreviates: read-out: Anti-echinococcus activity % of death, 50uM, E. granulosus PSCs, compound at 50uM.
The mark [7] stands for this setting: read-out: Anti-echinococcus activity % of death, 0.5uM.
The mark [8] stands for this setting: read-out: Anti-echinococcus activity % of death, 2uM.
Setting [9] is: read-out: Anti-echinococcus activity % of death, 10uM.
Setting [10] is: read-out: Anti-echinococcus activity % of death, 50uM.
The mark [11] stands for this setting: read-out: Anti-echinococcus activity % of death.

In brackets after ≈: the same amount, converted by molar mass. Where a name gives a salt, the structure may show the parent alone. Read-outs that look alike come from different tables or passages of the source.

Take `CCN(CC)CCN(Cc1ccc(-c2ccc(C(F)(F)F)cc2)cc1)C(=O)Cn1c(SCc2ccc(F)cc2)nc(=O)c2c1CCC2` [Darapladib (SB-480848), Darapladib, reference compound]: the killing at 0.5 µM was 0%, the killing at 2 µM is 0% and the killing at 10 µM is 0%. Further, under setting [1], the killing at 50 µM turned out to be 100%. The killing at 50 µM under setting [2] came to 90%. In addition, under setting [3], the mortality at 0.5 µM came out at 0%. For the same compound, under setting [4], the mortality at 2 µM was 0%. Under setting [5], the mortality at 10 µM was 30%. Moreover, under setting [6], the mortality at 50 µM came to 100%.

Take `C[C@@](Cc1ccc(O)c(O)c1)(NN)C(=O)O` [Carbidopa]: the mortality at 0.5 µM under setting [7] is 0%. Further, under setting [8], the mortality at 2 µM came to 0%. Under setting [9], the mortality at 10 µM came to 0%. The mortality at 50 µM under setting [10] stood at 100%.

For `NS(=O)(=O)C#Cc1ccccc1` [Pifithrin-mu], the mortality at 0.5 µM under setting [7] is 0%. Further, under setting [8], the mortality at 2 µM was found to be 0%. In addition, the mortality at 10 µM under setting [9] is 100%. The mortality at 50 µM under setting [10] worked out at 100%.

For the compound `CCN(CC)CCCNc1nccc2c(C)c3[nH]c4ccc(OC)cc4c3c(C)c12` [[…]], the mortality at 0.5 µM under setting [7] worked out at 0%. Further, the mortality at 2 µM under setting [8] is 0%. For the same compound, the mortality at 10 µM under setting [9] came to 0%. Under setting [10], the mortality at 50 µM is 100%.

As for `Cc1cccc(/C=N/Nc2cc(N3CCOCC3)n3nc(-c4ccncc4)cc3n2)c1` [APY0201], under setting [11], the mortality at 0.5 µM is 0%, the mortality at 2 µM turned out to be 0%, the mortality at 10 µM is 0% and the mortality at 50 µM is 100%.

Take `Cc1nc(Nc2ccc(F)cc2)nc(N2CCc3ccccc3C2C)c1C` (centres unmarked) [revaprazan]: the mortality at 0.5 µM under setting [7] was 0%. Moreover, the mortality at 2 µM under setting [8] is 0%. Also, the mortality at 10 µM under setting [9] came out at 0%. For the same compound, under setting [10], the mortality at 50 µM was 100%.

For `COc1ccc2c(c[n+](C)c3c4cc5c(cc4ccc23)OCO5)c1OC` [Chelerythrine, reference compound], the MIC90 was 9.2 µM. Further, the mortality at 0.5 µM under setting [7] came to 0%. In addition, the mortality at 2 µM under setting [8] is 0%. For the same compound, the mortality at 10 µM under setting [9] came to 100%. Moreover, the mortality at 50 µM under setting [10] was 100%.

Turning to `O=C(Nc1ccc([N+](=O)[O-])cc1Cl)c1cc(Cl)ccc1O` [Niclosamide], the MIC90 was determined as 2.9 µM (≈ 0.949 µg/mL). Under setting [3], the mortality at 0.5 µM came out at 0%. For the same compound, the mortality at 2 µM under setting [4] turned out to be 60%. For the same compound, the mortality at 10 µM under setting [5] is 100%. For the same compound, the mortality at 50 µM under setting [6] was 100%.

In the case of `Oc1c(Cl)cc(Cl)cc1Sc1cc(Cl)cc(Cl)c1O` [bithionol], the mortality at 0.5 µM under setting [7] was determined as 0%. Further, under setting [8], the mortality at 2 µM was 0%. In addition, under setting [9], the mortality at 10 µM worked out at 0%. For the same compound, the mortality at 50 µM under setting [10] amounted to 100%.

As to `O=C(NC1CCN(CCCCC2(C(=O)NCC(F)(F)F)c3ccccc3-c3ccccc32)CC1)c1ccccc1-c1ccc(C(F)(F)F)cc1` [Lomitapide, reference compound], the killing at 0.5 µM came to 0%, the killing at 2 µM is 0% and the killing at 10 µM turned out to be 0%. In addition, under setting [1], the killing at 50 µM is 100%. Further, the killing at 50 µM under setting [2] worked out at 100%. Also, under setting [11], the mortality at 0.5 µM is 0%, the mortality at 2 µM worked out at 0%, the mortality at 10 µM turned out to be 0% and the mortality at 50 µM stood at 100%.

Consider `COc1ccc(C(=O)CN(C)C(=O)/C=C/c2cccnc2)cc1OC` [TJN-598], for which the mortality at 0.5 µM under setting [7] is 0%. Besides, under setting [8], the mortality at 2 µM worked out at 60%. For the same compound, under setting [9], the mortality at 10 µM worked out at 100%. The mortality at 50 µM under setting [10] amounted to 100%.

As to `CCN(CC)CC(O)CNc1c2ccc(Cl)cc2nc2ccc(OC)cc12` (centres unmarked) [ACRANIL], under setting [7], the mortality at 0.5 µM came out at 0%. Also, the mortality at 2 µM under setting [8] is 0%. Also, the mortality at 10 µM under setting [9] is 0%. The mortality at 50 µM under setting [10] stood at 100%.

As to `COc1ccc(CCN(C)CCCOc2ccc(S(=O)(=O)c3c(C(C)C)cn4ccccc34)cc2)cc1OC` [FANTOFARONE], the mortality at 0.5 µM under setting [7] is 0%. Moreover, under setting [8], the mortality at 2 µM came to 0%. For the same compound, under setting [9], the mortality at 10 µM came out at 0%. For the same compound, the mortality at 50 µM under setting [10] worked out at 100%.

Regarding `C[n+]1cc2c3c(ccc2c2ccc4cc5c(cc4c21)OCO5)OCO3` [Sanguinarium chloride], the mortality at 0.5 µM under setting [7] was found to be 0%. Further, the mortality at 10 µM under setting [9] came out at 100%. Also, the mortality at 50 µM under setting [10] came to 100%.

For `CCCCCCCCN=c1ccn(CCCCCCCC)cc1` [[…]], the mortality at 0.5 µM under setting [7] turned out to be 0%. The mortality at 2 µM under setting [8] amounted to 0%. Under setting [9], the mortality at 10 µM was 50%. Under setting [10], the mortality at 50 µM was determined as 100%.

Consider `CNc1nc(Nc2ccc(-n3cnc(C)n3)c(OC)c2)nc2c1CC[C@H]2c1ccc(F)cc1` [BMS-932481], for which, under setting [11], the mortality at 0.5 µM worked out at 0%, the mortality at 2 µM was 0%, the mortality at 10 µM stood at 0% and the mortality at 50 µM came to 100%.

For `COCCN1CCC(N(Cc2ccc(-c3ccc(C(F)(F)F)cc3)cc2)C(=O)Cn2c(SCc3cccc(F)c3F)cc(=O)c3ccccc32)CC1` [RILAPLADIB], the mortality at 0.5 µM under setting [7] was found to be 0%. In addition, the mortality at 2 µM under setting [8] was 0%. For the same compound, the mortality at 10 µM under setting [9] came out at 60%. Also, the mortality at 50 µM under setting [10] was determined as 100%.

Consider `CCCCCCCCN=c1ccn(CCCCCCCCCCn2ccc(=NCCCCCCCC)cc2)cc1` [octenidine], for which the mortality at 0.5 µM under setting [7] was 0%. Under setting [8], the mortality at 2 µM came out at 0%. Also, the mortality at 10 µM under setting [9] was found to be 50%. Besides, the mortality at 50 µM under setting [10] worked out at 100%.

With `CC1(C)CC[C@]2(NC(=O)C(C)(F)F)CC[C@]3(C)[C@H](C(=O)C=C4[C@@]5(C)C=C(C#N)C(=O)C(C)(C)[C@@H]5CC[C@]43C)[C@@H]2C1` [Omaveloxolone], the MIC90 came to 6.9 µM (≈ 3.83 µg/mL).

`CCOC(=O)[C@H](CCSC)NC(=O)[C@H](Cc1cccc(N(CCCl)CCCl)c1)NC(=O)[C@@H](N)Cc1ccc(F)cc1` [Ambamustine hydrochloride]: the mortality at 0.5 µM under setting [7] worked out at 0%. In addition, the mortality at 2 µM under setting [8] amounted to 0%. Under setting [9], the mortality at 10 µM was determined as 0%. The mortality at 50 µM under setting [10] turned out to be 100%.

As to `COc1cccc2c1C(=O)c1c(O)c3c(c(O)c1C2=O)C[C@@](O)(C(=O)CO)C[C@@H]3O[C@H]1C[C@H](N)[C@H](O)[C@H](C)O1` [Doxorubicin (Adriamycin), Doxorubicin, reference compound], the killing at 0.5 µM turned out to be 100%, the killing at 2 µM is 100% and the killing at 10 µM is 100%. For the same compound, under setting [1], the killing at 50 µM was 100%. Moreover, the killing at 50 µM under setting [2] was 100%.

With `COCCN1CCC(N(Cc2ccc(-c3ccc(C(F)(F)F)cc3)cc2)C(=O)Cn2c(CCc3cccc(F)c3F)nc(=O)c3cccnc32)CC1` [GSK-568859], under setting [11], the mortality at 0.5 µM came to 0%, the mortality at 2 µM was 0%, the mortality at 10 µM is 0% and the mortality at 50 µM turned out to be 100%.

In the case of `COCCN1CCC(N(Cc2ccc(-c3ccc(C(F)(F)F)cc3)cc2)C(=O)Cn2c(CCc3cccc(F)c3F)cc(=O)c3cccnc32)CC1` [PH-CBR-2016-001-HVAC-05709-0], the mortality at 0.5 µM under setting [7] worked out at 0%. The mortality at 2 µM under setting [8] worked out at 0%. In addition, under setting [9], the mortality at 10 µM worked out at 0%. Also, the mortality at 50 µM under setting [10] came to 100%.
